Tests used:
[1] = system: pERK in H358 cells; experiment: pERK inhibition in H358 cells; settings: read-out: Cellular pERK inhibition, 4 hours treatment
Summary of the method: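 Human lung cancer H358 cells in RPMI/10% FBS were exposed to compound or DMSO for 4 h. Fixed and permeabilized cells were stained overnight at 4 C with anti-phospho-ERK1/2 (Thr202/Tyr204). Near-infrared imaging read the pERK signal at 800 nm, with DRAQ5 at 700 nm.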

[2] = molecular target: BRAF-GTP-KRAS-G12C complex (Homo sapiens, UniProt P01116+P62937, G12C); experiment: KRAS-BRAF complex disruption through competition with CYPA-compound by TR-FRET; settings: read-out: BRAF-GTP-KRAS-G12C Disruption; biochemical BRAF-KRAS G12C-GTP disruption assay EC50, with CYPA
Summary of the method: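 His6-KRAS G12C-GTP (1-169, 50 nM) with tagless CypA (1-165, 500 nM) was incubated with compound for 3 h at room temperature in pH 7.3 Hepes/NaCl/MgCl2 buffer containing GST-BRAF RBD. Anti-His Eu (10 nM) and anti-GST APC (50 nM) were then added for 1.5 h, and the 665/615 nm TR-FRET ratio was read. EC50 from 4-parameter fit; for specificity, wild-type KRAS replaced G12C, and CypA was omitted to test presenter dependence.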

[3] = molecular target: cyclophilin A (CYPA) (Homo sapiens, UniProt P62937); experiment: CYPA-compound binary complex formation by SPR; settings: read-out: CYPA Binding Affinity
Summary of the method: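 CypA-Avi captured on a Biotin CAPture chip (4 μg/ml), reference flow cell subtracted. Compounds injected as 10-point 2-fold dilutions from 50 μM in HBS-P+ pH7.4 with 2% DMSO; 60 s association and 60 s dissociation, solvent-corrected. Affinity obtained by steady-state fitting.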

IC50 [1] | EC50 [2] | Kd [3] | SMILES
1 to 10 µM | < 0.5 µM | < 5 µM | CC(C)[C@@H](C(=O)N[C@H]1Cc2cc(O)cc(c2)-c2ccc3cc(C(=O)N(C)C)n(c3c2)C[C@H](C)COC(=O)[C@@H]2CCCN(N2)C1=O)N(C)C(=O)C1CN(C(=O)CCl)C1
> 10 µM | > 5 µM | < 5 µM | CC#CC(=O)N1CCC[C@H](C(=O)N(C)[C@H](C(=O)N[C@H]2Cc3cc(O)cc(c3)-c3ccc4c(C(C)(C)C#N)cn(c4c3)CC(C)(C)COC(=O)[C@@H]3CCCN(N3)C2=O)C(C)C)C1
< 1 µM | < 0.5 µM | < 5 µM | CC(C)[C@@H](C(=O)N[C@H]1Cc2cc(O)cc(c2)-c2ccc3c(C(C)(C)C#N)cn(c3c2)CC(C2CC2)COC(=O)[C@@H]2CCCN(N2)C1=O)N(C)C(=O)C1CN(C(=O)CCl)C1 (stereo partly drawn)
1 to 10 µM | 0.5 to 5 µM | > 15 µM | COCc1ccccc1-c1cn2c3cc(ccc13)-c1cc(O)cc(c1)C[C@H](NC(=O)[C@H](C(C)C)N(C)C(=O)C1CN(C(=O)[C@@H](C)Cl)C1)C(=O)N1CCC[C@H](N1)C(=O)OCC(C)(C)C2
1 to 10 µM | 0.5 to 5 µM | 5 to 15 µM | C=CC(=O)N1CC[C@H](C(=O)N(C)[C@H](C(=O)N[C@H]2Cc3cc(O)cc(c3)-c3ccc4c(c3)c(cn4C(C)(C)C#N)CC(C)(C)COC(=O)[C@@H]3CCCN(N3)C2=O)C2CCC2)C1
1 to 10 µM | 0.5 to 5 µM | < 5 µM | CC(C)[C@@H](C(=O)N[C@H]1Cc2cc(O)cc(c2)-c2ccc3c(c2)c(cn3C(C)(C)C#N)CC(C)(C)COC(=O)[C@@H]2CCCN(N2)C1=O)N(C)C(=O)[C@H]1CCN(C(=O)[C@@H](C)Cl)C1
< 1 µM | < 0.5 µM | < 5 µM | CC(C)[C@@H](C(=O)N[C@H]1Cc2cc(O)cc(c2)-c2ccc3c(CC4CCOC4)cn(c3c2)C[C@H](C)COC(=O)[C@@H]2CCCN(N2)C1=O)N(C)C(=O)C1CN(C(=O)CCl)C1 (stereo partly drawn)
< 1 µM | < 0.5 µM | 5 to 15 µM | C=CC(=O)N1CC[C@H](C(=O)N(C)[C@H](C(=O)N[C@H]2Cc3cc(O)cc(c3)-c3ccc4c(c3)N(CC(C)(C)COC(=O)[C@@H]3CCCN(N3)C2=O)CC42COc3ccccc32)C(C)C)C1 (single isomer, unassigned) [353]
> 10 µM | > 5 µM | > 15 µM | C=CC(=O)N1CCC(C(=O)N(C)[C@H](C(=O)N[C@H]2Cc3cc(O)cc(c3)-c3ccc4c(C(C)(C)C#N)cn(c4c3)CC3(COC3)COC(=O)[C@@H]3CCCN(N3)C2=O)C(C)C)C1 (stereo partly drawn)
1 to 10 µM | < 0.5 µM | > 15 µM | CC(C)[C@@H](C(=O)N[C@H]1Cc2cc(O)cc(c2)-c2ccc3c(-c4cccc(Cl)c4C#N)cn(c3c2)CC(C)(C)COC(=O)[C@@H]2CCCN(N2)C1=O)N(C)C(=O)C1CN(C(=O)CCl)C1
> 10 µM | > 5 µM | > 15 µM | C=CC(=O)N1CC[C@H](C(=O)N(C)[C@H](C(=O)N[C@H]2Cc3cc(O)cc(c3)-c3ccc4c(c3)N(CC(C)(C)COC(=O)[C@@H]3CCCN(N3)C2=O)CC4(C)COC(=O)N(C)C)C(C)C)C1 (stereo partly drawn)
1 to 10 µM | < 0.5 µM | > 15 µM | CC(C)[C@@H](C(=O)N[C@H]1Cc2cc(O)cc(c2)-c2ccc3c(c2)N(C[C@H](C)COC(=O)[C@@H]2CCCN(N2)C1=O)C(=O)C31CCOCC1)N(C)C(=O)C1CN(C(=O)CCl)C1
1 to 10 µM | 0.5 to 5 µM | < 5 µM | CC(C)[C@@H](C(=O)N[C@H]1Cc2cc(O)cc(c2)-c2ccc3c(c2)N(CC3C(C)(C)C#N)C[C@H](C)COC(=O)[C@@H]2CCCN(N2)C1=O)N(C)C(=O)C1CN(C(=O)CCl)C1 (single isomer, unassigned) [248]
1 to 10 µM | < 0.5 µM | > 15 µM | CC(C)[C@@H](C(=O)N[C@H]1Cc2cc(O)cc(c2)-c2ccc3c(-c4ccccc4OC4CCCC4)cn(c3c2)CC(C)(C)COC(=O)[C@@H]2CCCN(N2)C1=O)N(C)C(=O)C1CN(C(=O)CCl)C1
